According to patent US20210269549A1, “ANTI-SAS1B ANTIBODIES, ASSOCIATED METHODS OF USE, AND COMPOSITIONS AND METHODS FOR DETECTING AND TREATING CANCER” (UNIVERSITY OF VIRGINIA PATENT FOUNDATION, priority 2015, published 2021):

Experiments:
Type in all cases: cell-based
[1] = test system: M1 (renal cancer cell line); test: Live cell surface indirect immunofluorescence, M1; conditions: live cells on ice; two cancer cell lines (M1, MMMT539)
Method: Anti-Human SAS1B mouse monoclonal antibodies reactive to SAS1B epitope on live cancer cell surfaces were identified by indirect immuno-fluorescence (IF) for the development of therapeutic antibodies. M1 (renal cancer cell line) and MMMT539 (uterine cancer cell line) cells were seeded at 20,000 cells in 1 ml per well on collagen coated coverslips in 24 well plates. The media was replaced 22 h post seeding. For antibody probing, cells were kept on ice for ˜8 to 18 min following 47 h post-seeding. The first antibody was added at 10 ug/ml, 20 ug/ml or 50 ug/ml in complete culture media with 15 mM NaN3 (pre-chilled), incubated on ice for 60 min, and the cells washed in complete culture media with 15 mM NaN3 in cold 1 ml, ×3. The second antibody, goat-antimouse-AF488 (pre-chilled), was added to the wells at 5 ug/ml in complete culture media with 15 mM NaN3 for 60 min on ice. The cells were washed in complete media with 15 mM NaN3, 1 ml, ×3 on ice. The cells were fixed in 4% PFA in PBS for 20 minutes on ice. The cells were washed in distilled water at RT, 1 ml, ×1 and mounted in 8 ul of SLOWFADE® Diamond Antifade Mountant with DAPI. An anti-EGFR monoclonal antibody was used as a positive control on live M1 cells. Epidermal growth factor receptor (EGFR) is a transmembrane glycoprotein and member of protein kinase superfamily. […]

[2] = test system: human uterine cancer cells (MMMT539); test: Antibody drug conjugate cytotoxicity (ADC) assay, MMMT539; conditions: FIG. 3A-B
Method: The cytotoxic effect of anti-human SAS1B mAbs SB2 and SB5 on human uterine cancer cells (MMMT539) was examined by antibody drug conjugate cytotoxicity (ADC) assay. Human uterine cancer cells MMMT539 were seeded in triplicate on 96 well plate overnight and then treated with SB2 or SB5 and anti-mouse Fab-cleavable-Duocarmycin complex for ˜90 h. The presence of viable live cells per well was measured by total cellular ATP content in relative luminescence unit (RLU). Viability of control live cells (100%) was determined from average of 9 wells in terms of total cellular ATP (in RLU) containing the constant 15 nM Fab-CL-DMDM for each set of antibody/reagent. […] Staurosporine, a general protein kinase inhibitor, was used to induce apoptosis in 1% DMSO as a positive control for the assay.

[3] = test system: renal cell carcinoma cell line (M1); test: Morphology of renal cell carcinoma cell line (M1) after 93 h of antibody drug treatment
Method: The morphology of renal cell carcinoma cell line (M1) after 93 h of anti-EGFR antibody drug treatment was examined.

renal carcinoma cells = test: ADC assay on renal carcinoma cells; conditions: 0.01 nM mAb, 15 nM Fab-DMDM, 4 days
Method: The cytotoxic effect of anti-EGFR (AY13), anti-SAS1B (SB2) and anti-CABYR (3A4) monoclonal antibodies on renal carcinoma cells were tested by ADC assay. An average of 3 experiments in triplicate is reported.

With “anti-EGFR mAb: anti-EGFR (AY13) monoclonal antibody used as a positive control [reference compound]” the “Surface labelling of live cancer cells” value [1] was “confirmed the EGFR expression on the cell surface”, the “Cell killing” value [2] was “killed the cancer cells in a dose dependent manner” and the “Cell killing and inhibition of cell proliferation (morphology)” value ([3]; 0.1 nM mAb with 15 nM Fab-DMDM) was “the numbers of unrounded live cells were very few”. For the same substance, the “Cell killing and inhibition of cell proliferation (morphology)” value ([3]; 1 nM mAb with 15 nM Fab-DMDM) was “clear cell killing and inhibition of cell proliferation properties” and the Viability (renal carcinoma cells) was 20%.
